# Results taken from IntAct's records for PubMed 25006247.
# B1: Apoptosis-associated speck-like protein containing a CARD (Homo sapiens), Q9ULZ3 (parent)
# chain: MGRARDAILDALENLTAEELKKFKLKLLSVPLREGYGRIPRGALLSMDALDLTDKLVSFYLETYGAELTANVLRDMGLQEMAGQLQAATHQGSGAAPAGIQAPPQSAAKPGLHFIDQHRAALIARVTNVEWLLDALYGKVLTDEQYQAVRAEPTNPSKMRKLFSFTPAWNWTCKDLLLQALRESQSYLVEDLERS
# partner: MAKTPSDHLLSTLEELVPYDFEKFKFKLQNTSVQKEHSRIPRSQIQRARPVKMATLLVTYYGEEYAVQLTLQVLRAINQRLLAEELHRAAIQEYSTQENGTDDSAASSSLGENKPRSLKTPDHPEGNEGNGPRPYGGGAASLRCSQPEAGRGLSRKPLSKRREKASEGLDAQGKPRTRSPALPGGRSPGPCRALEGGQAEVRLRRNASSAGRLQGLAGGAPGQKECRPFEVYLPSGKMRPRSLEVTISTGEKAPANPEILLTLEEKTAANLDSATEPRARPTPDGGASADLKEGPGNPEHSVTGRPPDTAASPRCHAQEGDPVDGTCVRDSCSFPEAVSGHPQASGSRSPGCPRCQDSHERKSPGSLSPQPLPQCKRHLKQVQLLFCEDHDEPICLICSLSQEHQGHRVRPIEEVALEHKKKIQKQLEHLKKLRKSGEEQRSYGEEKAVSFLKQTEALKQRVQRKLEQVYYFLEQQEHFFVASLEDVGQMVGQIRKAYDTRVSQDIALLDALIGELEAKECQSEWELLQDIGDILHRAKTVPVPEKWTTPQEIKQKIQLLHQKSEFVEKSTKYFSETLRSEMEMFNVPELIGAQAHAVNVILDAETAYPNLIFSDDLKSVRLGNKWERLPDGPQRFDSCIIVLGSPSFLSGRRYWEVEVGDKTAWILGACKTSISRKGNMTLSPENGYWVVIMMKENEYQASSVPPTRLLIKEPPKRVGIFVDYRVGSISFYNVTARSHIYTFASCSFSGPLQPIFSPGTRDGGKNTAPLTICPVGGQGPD
# Variants of: B1
# Settings: with mefv_human MEFV
row,effect of a mutation on the interaction,Variant
1,with no effect,Q84A
2,decreasing interaction strength,R38A
3,with no effect,T63A
4,with no effect,R74A
5,disrupting interaction strength,K21A
6,with no effect,E67A
7,disrupting interaction strength,E13A
8,disrupting interaction strength,D51A
9,with no effect,E80A
10,with no effect,E34A
11,disrupting interaction strength,R41A
12,with no effect,E18A
13,decreasing interaction strength,D10A
14,with no effect,R3A
15,decreasing interaction strength,D54A
16,disrupting interaction strength,D48A
